According to US9085561B2, “Cyclic urea- or lactam-substituted quinoxaline-type piperidines as ORL-1 modulators” (priority 2012, dated 2015):

Tests used:
human μ-opioid receptor [1] = target: T1, human μ-opioid receptor (Homo sapiens, UniProt P35372); assay: In vitro mu-opioid receptor binding assay ([3H]-diprenorphine displacement); conditions: read-out: Ki [Average ± Std Deviation] Opioid Receptor Mu; binding to mu-opioid receptor, procedure of Example 39
[2] = target: recombinant delta opioid receptor expressed in CHO-K1 cells (Homo sapiens, UniProt P41143); assay: In vitro delta-opioid receptor binding assay ([3H]-Naltrindole displacement); conditions: read-out: Ki [Average ± Std Deviation] Opioid Receptor Delta; binding to delta-opioid receptor, procedure of Example 43
[3] = target: T2, human opioid receptor-like (ORL-1) (Homo sapiens, UniProt P41146); assay: In vitro ORL-1 receptor [35S]GTPγS functional assay; assay type: biochemical; conditions: procedure of Example 38; for EC50: read-out: GTPγS ORL-1 EC50 [mean ± SEM]
[4] = target: T2, human opioid receptor-like (ORL-1); assay: In vitro ORL-1 receptor binding assay ([3H]-nociceptin displacement); conditions: read-out: Ki [Average ± Std Deviation] ORL-1; binding to ORL-1 receptor, procedure of Example 37
kappa opioid receptor [5] = target: T3, kappa opioid receptor (Homo sapiens, UniProt P41145); assay: In vitro kappa-opioid receptor binding assay ([3H]-U69,593 displacement); conditions: read-out: Ki [Average ± Std Deviation] Opioid Receptor Kappa; binding to kappa-opioid receptor, procedure of Example 41
human μ-opioid receptor [6] = target: T1, human μ-opioid receptor; assay: In vitro mu-opioid receptor [35S]GTPγS functional assay; assay type: biochemical; conditions: read-out: GTPγS Opioid Receptor EC50 Mu [mean ± SEM]; procedure of Example 40
kappa opioid receptor [7] = target: T3, kappa opioid receptor; assay: In vitro kappa-opioid receptor [35S]GTPγS functional assay; conditions: read-out: GTPγS Opioid Receptor EC50 Kappa [mean ± SEM]; procedure of Example 42

| SMILES | Ki (human μ-opioid receptor [1]) [nM] | Ki [2] [nM] | GTPγS ORL-1 Emax [mean ± SEM] [3] [%] | EC50 [3] [nM] | Ki [4] [nM] | Ki (kappa opioid receptor [5]) [nM] | EC50 (human μ-opioid receptor [6]) [nM] | EC50 (kappa opioid receptor [7]) [nM] |
| --- | --- | --- | --- | --- | --- | --- | --- | --- |
| C[C@@H]1C[C@@H]2C[C@H](C1)C[C@@H](N1[C@@H]3CCC[C@H]1C[C@@H](n1c(=O)c(-c4cc[nH]c(=O)c4)nc4ccccc41)C3)C2 | 9.32 | 2510 | 62.3 ± 1.8 | 1.05 | 1.26 | 1.4 | 2600 | 4640 |
| O=c1[nH]cc(-c2nc3ccccc3n([C@H]3C[C@H]4CCC[C@@H](C3)N4[C@H]3C[C@@H]4CCC[C@@H](C4)C3)c2=O)c(=O)[nH]1 | 227 | > 20000 | 25.3 ± 1.9 | 1.52 | 1.47 | 27.7 | > 20000 | > 20000 |
| O=c1[nH]cc(Cl)cc1-c1nc2ccccc2n([C@H]2C[C@H]3CCC[C@@H](C2)N3[C@H]2C[C@@H]3CCC[C@@H](C3)C2)c1=O | 100 | 13400 | 39.7 ± 2.7 | 8.5 | 4.1 | 11.8 | > 20000 | > 20000 |
| O=c1[nH]cccc1-c1nc2ccccc2n([C@H]2C[C@H]3CCC[C@@H](C2)N3C2CCCCCCCCC2)c1=O | 231 | 12800 | 110.3 ± 6.6 | 22.3 | 3.1 | 7.6 | > 20000 | > 20000 |
| O=c1[nH]cccc1-c1nc2ccccc2n([C@H]2C[C@H]3CCC[C@@H](C2)N3[C@H]2C[C@@H]3CCC[C@@H](C3)C2)c1=O | 286 | > 20000 | 25.3 ± 0.3 | 15.1 | 8.01 | 117 | > 20000 | > 20000 |
| O=c1cc(-c2nc3ccccc3n([C@H]3C[C@H]4CCC[C@@H](C3)N4[C@H]3C[C@@H]4CCC[C@@H](C4)C3)c2=O)cc[nH]1 | 66 | 16500 | 28.7 ± 0.3 | 9.9 | 5.33 | 82.4 | > 20000 | > 20000 |
| O=c1ccc(-c2nc3ccccc3n([C@H]3C[C@H]4CCC[C@@H](C3)N4[C@H]3C[C@@H]4CCC[C@@H](C4)C3)c2=O)c[nH]1 | 146 | > 20000 | 31.3 ± 3.9 | 3.38 | 2.2 | 46.7 | > 20000 | > 20000 |
| O=c1cnc(-c2nc3ccccc3n([C@H]3C[C@H]4CCC[C@@H](C3)N4[C@H]3C[C@@H]4CCC[C@@H](C4)C3)c2=O)c[nH]1 | 513 | 9300 | 28.0 ± 0.6 | 1.34 | 1.72 | 117 | > 20000 | > 20000 |
| N[C@@H]1CCN(c2nc3ccccc3n([C@H]3C[C@H]4CC[C@@H](C3)N4C3CCCCCCC3)c2=O)C1 [CC101, reference compound] | 590 | 14000 | 105.7 ± 5.0 | 17 | 1.6 | 14.9 | 4900 | 32800 |
| O=c1cnn(-c2nc3ccccc3n([C@H]3C[C@H]4CCC[C@@H](C3)N4[C@H]3C[C@@H]4CCC[C@@H](C4)C3)c2=O)c(=O)[nH]1 [Compound B9a] | 297 | 5820 | 19 ± 2 | 5.43 | 5.4 | 115 | > 20000 | > 20000 |
| C[C@@H]1C[C@@H]2C[C@H](C1)C[C@@H](N1[C@@H]3CCC[C@H]1C[C@@H](n1c(=O)c(N4C(=O)NC(C)(C)C4=O)nc4ccccc41)C3)C2 [Compound B47a] | 5.1 | 3610 | 36 ± 3 | 4.7 | 2 | 0.6 | > 20000 | > 20000 |
| O=c1cnn(-c2nc3ccccc3n([C@H]3C[C@H]4CC[C@@H](C3)N4[C@@H]3C[C@@H]4CCCC[C@@H](C4)C3)c2=O)c(=O)[nH]1 [Compound N9b, 2-(4-((1R,3R,5S)-8-((1R,6S,8s)-bicyclo[4.3.1]decan-8-yl)-8-azabicyclo[3.2.1]octan-3-yl)-3-oxo-3,4-dihydroquinoxalin-2-yl)-1,2,4-triazine-3,5(2H,4H)-dione] | 152 | 5520 | 27.7 ± 1.2 | 10.5 | 4.2 | 143 | > 20000 | > 20000 |
| C[C@@H]1C[C@@H]2C[C@H](C1)C[C@@H](N1[C@@H]3CCC[C@H]1C[C@@H](n1c(=O)c(-c4ccc(=O)[nH]c4)nc4ccccc41)C3)C2 [Compound U060, 1-((1R,1′R,3r,3′R,5S,5′S,7S)-7-methyl-[3,9′-bi(9′-azabicyclo[3.3.1]nonan)]-3′-yl)-3-(6-oxo-1,6-dihydropyridin-3-yl)quinoxalin-2(1H)-one] | 6.7 | 4650 | 65.3 ± 3.6 | 0.48 | 0.5 | 3.47 | > 20000 | > 20000 |
| C[C@@H]1C[C@@H]2C[C@H](C1)C[C@@H](N1[C@@H]3CCC[C@H]1C[C@@H](n1c(=O)c(-c4c[nH]c(=O)c(C(N)=O)c4)nc4ccccc41)C3)C2 [Compound U063, 5-(4-((1R,1′R,3r,3′R,5S,5′S,7S)-7-methyl-[3,9′-bi(9′-azabicyclo[3.3.1]nonan)]-3′-yl)-3-oxo-3,4-dihydroquinoxalin-2-yl)-2-oxo-1,2-dihydropyridine-3-carboxamide] | 16.1 | 10500 | 50.7 ± 6.2 | 3.12 | 1.03 | 2.9 | 3630 | 6980 |
| C[C@@H]1C[C@@H]2C[C@H](C1)C[C@@H](N1[C@@H]3CCC[C@H]1C[C@@H](n1c(=O)c(-c4c[nH]c(=O)c(C(=O)O)c4)nc4ccccc41)C3)C2 [Compound U064, 5-(4-((1R,1′R,3r,3′R,5S,5′S,7S)-7-methyl-[3,9′-bi(9′-azabicyclo[3.3.1]nonan)]-3′-yl)-3-oxo-3,4-dihydroquinoxalin-2-yl)-2-oxo-1,2-dihydropyridine-3-carboxylic acid] | 7.35 | 15900 | 38.7 ± 4.3 | 1.97 | 1.12 | 95.8 | > 20000 | > 20000 |
| Nc1ccn(-c2nc3ccccc3n([C@H]3C[C@H]4CC[C@@H](C3)N4[C@@H]3C[C@@H]4CCCC[C@@H](C4)C3)c2=O)c(=O)n1 [Compound U066, 3-(4-amino-2-oxopyrimidin-1(2H)-yl)-1-((1R,3R,5S)-8-((1R,6S,8s)-bicyclo[4.3.1]decan-8-yl)-8-azabicyclo[3.2.1]octan-3-yl)quinoxalin-2(1H)-one] | 51 | > 20000 | 39.7 ± 2.2 | 5.47 | 0.63 | 9.7 | 95.2 | > 20000 |
| Nc1nc(=O)n(-c2nc3ccccc3n([C@H]3C[C@H]4CCC[C@@H](C3)N4[C@@H]3C[C@@H]4CCCC[C@@H](C4)C3)c2=O)cc1F [Compound U067] | 14.4 | 17600 | 28.5 ± 0.9 | 2.45 | 0.29 | 1.12 | > 20000 | > 20000 |
| O=C(O)Cn1c(-c2nc3ccccc3n([C@H]3C[C@H]4CC[C@@H](C3)N4[C@@H]3C[C@@H]4CCCC[C@@H](C4)C3)c2=O)cccc1=O [DD1b(iii), 2-(6-(4-((1R,3R,5S)-8-((1R,6S,8s)-bicyclo[4.3.1]decan-8-yl)-8-azabicyclo[3.2.1]octan-3-yl)-3-oxo-3,4-dihydroquinoxalin-2-yl)-2-oxopyridin-1(2H)-yl)acetic acid] | 243 | 3100 | 31.7 ± 2.7 | 94.7 | 3.54 | 143 | 87 | > 20000 |
| O=c1[nH]nc(-c2nc3ccccc3n([C@H]3C[C@H]4CCC[C@@H](C3)N4[C@@H]3C[C@@H]4CCCC[C@@H](C4)C3)c2=O)[nH]1 [EE6b(i)(i), 1-((1R,3R,5S)-9-((1R,6S,8s)-bicyclo[4.3.1]decan-8-yl)-9-azabicyclo[3.3.1]nonan-3-yl)-3-(5-oxo-4,5-dihydro-1H-1,2,4-triazol-3-yl)quinoxalin-2(1H)-one] | 28.8 | 9810 | 33 ± 1 | 1.03 | 0.15 | 22.6 | 12.5 | > 20000 |
